{"source": "paper PMC3484126", "about": "(PLoS ONE, 2012)", "biological_target": "coumarin-labelled p53 (1–57) (UniProt P04637 1-57, coumarin label (position not given))", "data": [{"binder": "KLF4 (271–479) (domain or fragment) PRTCPKIKQEAVSSCTHLGAGPPLSNGHRPAAHDFPLGRQLPSRTTPTLGLEEVLSSRDCHPALPLPPGFHPHPGPNYPSFLPDQMQPQVPPLHYQELMPPGSCMPEEPKPKRGRRSWPRKRTATHTCDYAGCGKTYTKSSHLKAHLRTHTGEKPYHCDWDGCGWKFARSDELTRHYRKHTGHRPFQCQKCDRAFSRSDHLALHMKRHF", "values": [{"measurement": "Kd", "value": 30, "unit": "µM"}]}]}
